Test results taken from patent US7691965B2, “Helical synthetic peptides that stimulate cellular cholesterol efflux” (The Regents of the University of California, priority 2002, dated 2010).

The chains behind the UniProt entries cited, without tags or fusion partners. Where a name states a change or a piece, a line headed by the entry shows the natural chain unless it says otherwise.
UniProt P41233: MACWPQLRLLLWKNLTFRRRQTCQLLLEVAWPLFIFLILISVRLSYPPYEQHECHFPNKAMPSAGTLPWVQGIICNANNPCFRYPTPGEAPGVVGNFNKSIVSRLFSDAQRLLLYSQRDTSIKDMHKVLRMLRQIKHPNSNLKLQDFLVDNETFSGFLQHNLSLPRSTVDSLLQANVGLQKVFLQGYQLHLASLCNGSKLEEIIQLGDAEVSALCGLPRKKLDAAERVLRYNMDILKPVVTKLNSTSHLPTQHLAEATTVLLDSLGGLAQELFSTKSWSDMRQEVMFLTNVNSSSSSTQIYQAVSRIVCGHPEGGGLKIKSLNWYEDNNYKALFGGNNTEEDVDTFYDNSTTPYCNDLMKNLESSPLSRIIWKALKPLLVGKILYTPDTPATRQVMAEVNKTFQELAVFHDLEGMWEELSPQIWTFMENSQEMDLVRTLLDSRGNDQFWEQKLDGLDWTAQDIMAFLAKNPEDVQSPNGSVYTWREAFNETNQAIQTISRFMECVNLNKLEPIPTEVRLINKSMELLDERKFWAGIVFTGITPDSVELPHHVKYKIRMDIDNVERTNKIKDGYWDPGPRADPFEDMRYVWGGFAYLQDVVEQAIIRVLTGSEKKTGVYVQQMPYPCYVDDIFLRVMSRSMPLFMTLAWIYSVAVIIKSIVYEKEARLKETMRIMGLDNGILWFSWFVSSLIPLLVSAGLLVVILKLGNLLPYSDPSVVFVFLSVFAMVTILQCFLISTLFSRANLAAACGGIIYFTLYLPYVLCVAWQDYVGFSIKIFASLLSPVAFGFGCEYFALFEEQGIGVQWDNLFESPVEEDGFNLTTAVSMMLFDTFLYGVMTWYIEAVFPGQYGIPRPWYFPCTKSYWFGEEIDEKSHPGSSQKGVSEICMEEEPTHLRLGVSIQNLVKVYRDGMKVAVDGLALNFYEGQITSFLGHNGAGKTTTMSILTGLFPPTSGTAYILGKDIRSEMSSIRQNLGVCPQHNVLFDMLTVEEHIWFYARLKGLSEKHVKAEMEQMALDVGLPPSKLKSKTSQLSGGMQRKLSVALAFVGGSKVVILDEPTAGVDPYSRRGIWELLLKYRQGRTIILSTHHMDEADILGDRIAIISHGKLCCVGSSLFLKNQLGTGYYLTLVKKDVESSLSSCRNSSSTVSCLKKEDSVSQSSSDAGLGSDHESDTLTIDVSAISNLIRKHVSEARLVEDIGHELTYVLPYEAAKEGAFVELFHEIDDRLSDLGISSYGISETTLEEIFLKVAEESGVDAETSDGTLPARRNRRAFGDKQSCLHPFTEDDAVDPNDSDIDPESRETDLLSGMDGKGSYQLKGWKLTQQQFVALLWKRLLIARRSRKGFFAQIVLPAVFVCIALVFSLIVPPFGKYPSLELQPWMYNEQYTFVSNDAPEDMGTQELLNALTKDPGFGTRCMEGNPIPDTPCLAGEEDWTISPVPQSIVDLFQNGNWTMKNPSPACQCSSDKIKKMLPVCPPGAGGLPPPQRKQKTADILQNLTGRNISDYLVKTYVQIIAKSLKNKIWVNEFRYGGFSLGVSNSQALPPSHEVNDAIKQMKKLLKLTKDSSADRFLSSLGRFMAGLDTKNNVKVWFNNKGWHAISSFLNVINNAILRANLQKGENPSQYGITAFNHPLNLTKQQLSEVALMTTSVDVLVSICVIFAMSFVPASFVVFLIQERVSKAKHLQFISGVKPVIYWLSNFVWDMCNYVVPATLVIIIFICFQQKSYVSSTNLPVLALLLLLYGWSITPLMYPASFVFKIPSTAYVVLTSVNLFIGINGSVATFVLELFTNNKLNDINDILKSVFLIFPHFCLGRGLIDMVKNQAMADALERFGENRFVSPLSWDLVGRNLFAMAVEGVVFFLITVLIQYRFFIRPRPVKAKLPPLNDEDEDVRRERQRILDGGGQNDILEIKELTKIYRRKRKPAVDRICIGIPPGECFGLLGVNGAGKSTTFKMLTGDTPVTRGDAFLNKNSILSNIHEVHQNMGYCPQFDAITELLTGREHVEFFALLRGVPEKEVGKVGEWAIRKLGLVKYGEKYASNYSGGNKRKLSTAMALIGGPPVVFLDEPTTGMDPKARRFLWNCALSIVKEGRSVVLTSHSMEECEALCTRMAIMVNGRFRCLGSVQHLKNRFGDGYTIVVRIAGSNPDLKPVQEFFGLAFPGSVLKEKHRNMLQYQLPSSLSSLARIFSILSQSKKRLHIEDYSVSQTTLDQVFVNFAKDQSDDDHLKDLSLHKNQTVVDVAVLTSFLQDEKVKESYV

Target: ABCA1 (Mus musculus, UniProt P41233)
Assay: Cellular cholesterol efflux from [3H]cholesterol-labeled J774 macrophages with and without cAMP analog
Format: cell-based
Design: endogenous in cells; host or cells: J774 macrophages treated with a cAMP analog (CPT-cAMP or 8-bromo-cAMP)
Conditions: lipid-free acceptor, J774 macrophages with vs without cAMP analog
Text: Suitable cholesterol efflux assays are described in, e.g., Bielicki, J. K and Oda, M. N., Biochemistry, 41:2089-2096 (2002); Jia, Z. et al., Biochem. Biophys. Res. Common., 297:206-213 (2002). In some embodiments, a polypeptide known to mediate cholesterol efflux (e.g., helix 9/10 of Apo A-I) is used to screen for additional mediators of cholesterol efflux in a cell based assay. For example, cell lines in which cholesterol efflux can be enhanced using a cAMP analog that up-regulates ABCA1 protein expression (e.g., J774 macrophages) can conveniently be used to assess the ability of an Apo A-I, Apo A-II, Apo A-IV, Apo E, Apo C-I, Apo C-II, Apo C-III, or Serum Amyloid A peptide to mediate cholesterol efflux. […]
Cellular Cholesterol Efflux Protocol—J774 macrophages were used to assess the cholesterol efflux properties of synthetic amphipathic α-helical peptides (Bielicki, J. K and Oda, M. N., Biochemistry, 41:2089-2096 (2002); Jia, Z. et al., Biochem. Biophys. Res. Common., 297:206-213 (2002)). […] Efflux results were expressed as a percentage of the initial cellular [^3H] appearing in the medium as a function of time subtracting the background efflux obtained using serum-free medium alone.

B1: N-terminal four-helix bundle: N-terminal domain of apoE derived from apoE3, cysteine at position 112 (protein)
chain: KVEQAVETEPEPELRQQTEWQSGQRWELALGRFWDYLRWVQTLSEQVQEELLSSQVTQELRALMDETMKELKAYKSELEEQLTPVAEETRARLSKELQAAQARLGADMEDVCGRLVQYRGEVQAMLGQSTEELRVRLASHLRKLRKRLLRDADDLQKRLAVYQAGAREGAERGLSAIRERLGPLVEQGRVR
ABCA1-dependent cholesterol efflux (result in words): poorly active
